Values quoted from earlier work, collected in patent publication US20220296825A1, “EXHALATION DELIVERY SYSTEM FOR AND METHOD OF TREATING SINUS DISEASE” (OptiNose AS, priority 2018, published 2022).

By UniProt entry, the sequences of proteins in these tests, tags left out.
UniProt P04150, whole entry, species assumed: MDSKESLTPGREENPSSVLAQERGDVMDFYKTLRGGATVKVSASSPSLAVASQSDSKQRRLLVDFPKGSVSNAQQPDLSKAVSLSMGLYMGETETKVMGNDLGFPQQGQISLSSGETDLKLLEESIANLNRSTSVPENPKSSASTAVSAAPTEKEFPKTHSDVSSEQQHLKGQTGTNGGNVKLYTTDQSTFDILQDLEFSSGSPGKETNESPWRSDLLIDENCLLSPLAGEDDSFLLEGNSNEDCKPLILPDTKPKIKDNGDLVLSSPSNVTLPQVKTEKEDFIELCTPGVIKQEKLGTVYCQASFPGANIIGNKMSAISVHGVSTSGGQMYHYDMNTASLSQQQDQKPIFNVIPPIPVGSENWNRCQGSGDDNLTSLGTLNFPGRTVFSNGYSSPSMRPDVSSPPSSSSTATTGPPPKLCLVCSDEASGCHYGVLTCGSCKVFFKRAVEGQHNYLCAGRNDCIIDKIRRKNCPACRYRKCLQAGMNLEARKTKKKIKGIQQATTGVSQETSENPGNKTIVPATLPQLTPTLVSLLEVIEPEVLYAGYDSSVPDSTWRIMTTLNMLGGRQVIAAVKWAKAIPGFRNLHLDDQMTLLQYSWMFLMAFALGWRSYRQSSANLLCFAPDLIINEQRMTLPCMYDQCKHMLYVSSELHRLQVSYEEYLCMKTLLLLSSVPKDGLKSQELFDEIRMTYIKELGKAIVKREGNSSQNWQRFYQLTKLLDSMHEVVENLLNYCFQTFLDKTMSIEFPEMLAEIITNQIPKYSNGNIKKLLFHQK

Molecular target: glucocorticoid receptor (Homo sapiens, UniProt P04150)
Details: fluticasone propionate compared with budesonide

In the case of fluticasone propionate, the “glucocorticoid receptor binding affinity, fold higher” value is given as 1.7 ×.
